{"sequences": {"note": "Protein sequences, listed by entry. Tags and fused reporters are not part of them.", "UniProt P04626, whole entry": "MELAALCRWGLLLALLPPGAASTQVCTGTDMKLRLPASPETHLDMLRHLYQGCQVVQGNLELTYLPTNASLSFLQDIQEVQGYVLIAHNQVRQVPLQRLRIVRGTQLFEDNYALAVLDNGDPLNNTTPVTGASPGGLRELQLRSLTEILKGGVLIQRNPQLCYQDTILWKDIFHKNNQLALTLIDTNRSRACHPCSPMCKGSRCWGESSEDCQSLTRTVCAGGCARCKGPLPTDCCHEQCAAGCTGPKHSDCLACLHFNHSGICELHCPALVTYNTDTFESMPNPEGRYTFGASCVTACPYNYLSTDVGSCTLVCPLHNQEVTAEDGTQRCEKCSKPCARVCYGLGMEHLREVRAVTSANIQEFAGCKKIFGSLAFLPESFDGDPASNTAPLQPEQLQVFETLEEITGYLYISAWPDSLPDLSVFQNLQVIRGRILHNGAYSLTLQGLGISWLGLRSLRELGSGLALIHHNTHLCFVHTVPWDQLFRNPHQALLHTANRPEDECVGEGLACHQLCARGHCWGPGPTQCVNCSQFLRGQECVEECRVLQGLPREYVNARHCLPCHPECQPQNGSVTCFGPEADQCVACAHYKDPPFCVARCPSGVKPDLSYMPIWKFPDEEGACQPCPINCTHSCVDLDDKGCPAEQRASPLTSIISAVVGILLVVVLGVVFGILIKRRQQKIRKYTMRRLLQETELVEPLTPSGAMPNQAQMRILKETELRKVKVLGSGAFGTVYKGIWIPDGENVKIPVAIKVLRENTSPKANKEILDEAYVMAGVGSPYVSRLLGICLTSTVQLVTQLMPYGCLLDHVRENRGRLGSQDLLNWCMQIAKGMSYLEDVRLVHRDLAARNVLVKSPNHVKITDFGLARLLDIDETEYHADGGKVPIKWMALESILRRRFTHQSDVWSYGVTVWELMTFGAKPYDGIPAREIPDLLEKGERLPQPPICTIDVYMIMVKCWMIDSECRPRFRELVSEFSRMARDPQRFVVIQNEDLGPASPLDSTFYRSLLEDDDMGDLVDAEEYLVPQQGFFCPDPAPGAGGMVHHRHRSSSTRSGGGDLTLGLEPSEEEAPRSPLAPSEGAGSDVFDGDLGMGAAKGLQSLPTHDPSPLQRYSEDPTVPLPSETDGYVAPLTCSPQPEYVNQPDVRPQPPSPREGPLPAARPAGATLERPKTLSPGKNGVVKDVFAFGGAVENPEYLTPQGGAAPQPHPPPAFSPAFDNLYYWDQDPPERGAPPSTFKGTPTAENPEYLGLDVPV"}, "source": "ChEMBL document CHEMBL3881527", "about": "“Multi-functional small molecules as anti-proliferative agents” (2008)", "molecular_target": "Receptor tyrosine-protein kinase erbB-2 (Homo sapiens, UniProt P04626)", "experiment": "Inhibition of N-terminal GST-tagged human HER2 (Lys676 to Val1255 residues) expressed in baculovirus expression system using biotinylated FLT3 at Tyr589 as substrate preincubated for 5 mins followed by substrate addition measured after 30 mins by DELFIA method"}
{"molecule": "C[C@@H](Nc1ncnc2[nH]c(-c3ccc(CNCCCCCCCC(=O)NO)cc3)cc12)c1ccccc1", "values": [{"measurement": "IC50", "result": "100 to 1000", "unit": "nM"}]}
